{"source": "paper PMC13334530", "about": "(Nature neuroscience, 2026)", "key": {"[1]": {"assay": "PAMPA-BBB permeability assay", "assay_type": "in vitro ADME", "settings": "BBB-1 phospholipid mix, pH 7.4, 50 μM, N=3"}, "primary mouse neurons": {"system": "primary mouse neurons", "assay": "Intracellular metabolite extraction from treated neurons", "assay_type": "in vitro ADME", "settings": "DIV14 cortical neurons, extracted intracellular metabolites, 1 pg limit of detection"}, "[2]": {"settings": "stereotactic injection into mouse hippocampus"}}, "note": "“Also recorded” adds a separate entry of the source.", "data": [{"substance": "Biotin-PEG24-Epoxomicin [iBEp]", "values": [{"measurement": "fold less permeable than Epoxomicin in PAMPA-BBB", "setting": "[1]", "value": "at least 2500 fold"}, {"measurement": "permeability into primary mouse neurons by LC/MS-based metabolite profiling", "setting": "primary mouse neurons", "value": "no iBEp permeability; also recorded: no iBEp peak is identified"}, {"measurement": "permeability in vivo (membrane fractionation of hippocampal tissues)", "setting": "[2]", "value": "do not detect permeability"}]}]}
